In article PMC6540285, “Evaluation of Protein Kinase Inhibitors with PLK4 Cross-Over Potential in a Pre-Clinical Model of Cancer” (International Journal of Molecular Sciences, 2019):
Like-named read-outs stand apart in the source and are kept apart here.

Protein sequences, listed by entry. Tags and fused reporters are not part of them. Lines headed by an entry give the natural chain unless they say otherwise; changes in a name come on top.
UniProt O94921: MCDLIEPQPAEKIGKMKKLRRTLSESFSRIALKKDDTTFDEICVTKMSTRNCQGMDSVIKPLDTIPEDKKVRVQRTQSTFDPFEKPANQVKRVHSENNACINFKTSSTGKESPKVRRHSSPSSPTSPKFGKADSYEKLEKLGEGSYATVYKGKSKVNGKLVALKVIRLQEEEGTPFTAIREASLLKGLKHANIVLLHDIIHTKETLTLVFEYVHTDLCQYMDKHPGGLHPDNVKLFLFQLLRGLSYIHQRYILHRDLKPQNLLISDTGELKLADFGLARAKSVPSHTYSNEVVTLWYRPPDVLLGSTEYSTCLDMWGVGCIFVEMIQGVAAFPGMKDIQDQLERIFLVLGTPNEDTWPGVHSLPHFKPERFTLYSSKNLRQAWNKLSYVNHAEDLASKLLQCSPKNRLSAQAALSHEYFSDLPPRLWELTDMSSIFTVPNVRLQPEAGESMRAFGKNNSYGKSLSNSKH
UniProt Q00537: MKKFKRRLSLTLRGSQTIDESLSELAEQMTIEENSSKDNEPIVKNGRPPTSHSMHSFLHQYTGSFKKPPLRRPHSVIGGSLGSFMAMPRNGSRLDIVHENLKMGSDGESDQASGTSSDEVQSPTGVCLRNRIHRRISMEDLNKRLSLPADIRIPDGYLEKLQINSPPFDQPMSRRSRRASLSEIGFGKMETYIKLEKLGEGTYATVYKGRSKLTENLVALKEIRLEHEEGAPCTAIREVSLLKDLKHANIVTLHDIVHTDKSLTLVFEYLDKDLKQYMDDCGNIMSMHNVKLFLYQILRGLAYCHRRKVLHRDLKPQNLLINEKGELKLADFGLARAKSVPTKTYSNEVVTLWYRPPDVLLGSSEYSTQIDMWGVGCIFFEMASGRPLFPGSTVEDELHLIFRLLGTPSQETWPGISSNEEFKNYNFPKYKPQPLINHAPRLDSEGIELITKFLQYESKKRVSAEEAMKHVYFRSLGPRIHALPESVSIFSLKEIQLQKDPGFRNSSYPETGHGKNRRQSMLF
UniProt Q07002: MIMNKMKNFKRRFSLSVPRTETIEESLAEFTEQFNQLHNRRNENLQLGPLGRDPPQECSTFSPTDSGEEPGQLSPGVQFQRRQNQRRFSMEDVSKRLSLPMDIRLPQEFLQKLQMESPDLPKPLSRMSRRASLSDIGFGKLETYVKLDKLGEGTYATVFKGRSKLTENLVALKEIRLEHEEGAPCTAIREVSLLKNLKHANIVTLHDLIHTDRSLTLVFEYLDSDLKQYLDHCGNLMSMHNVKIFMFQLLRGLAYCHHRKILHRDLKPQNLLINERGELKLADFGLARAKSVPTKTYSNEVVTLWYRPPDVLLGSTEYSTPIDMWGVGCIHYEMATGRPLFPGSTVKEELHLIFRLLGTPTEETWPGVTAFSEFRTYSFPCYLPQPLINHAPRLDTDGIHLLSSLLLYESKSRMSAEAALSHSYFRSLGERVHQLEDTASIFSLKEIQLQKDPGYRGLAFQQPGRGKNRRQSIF

Assays:
[1] = test system: BT-12 cells; type: cell-based; conditions: Homo sapiens, BT-12, read-out: MTT: IC50 of the proliferation assay
[2] = test system: BT-16 cells; type: cell-based; conditions: BT-16, read-out: MTT: IC50 of the proliferation assay
[3] = test system: DAOY cells; type: cell-based; conditions: Homo sapiens, read-out: MTT: IC50 of the proliferation assay
[4] = test system: D283 cells; type: cell-based; conditions: D283, read-out: MTT: IC50 of the proliferation assay
[5] = test system: MON cells; experiment: cells; conditions: read-out: MTT: IC50 of the proliferation assay
[6] = target: CDK14 (PFTK1)/cyclin Y (Homo sapiens, UniProt O94921); experiment: biochemical; conditions: read-out: % Inhibition Avg
[7] = target: CDK17/cyclin Y (Homo sapiens, UniProt Q00537); experiment: biochemical; conditions: read-out: % Inhibition Avg
[8] = target: CDK18/cyclin Y (Homo sapiens, UniProt Q07002); experiment: biochemical; conditions: read-out: % Inhibition Avg
[9] = test system: D283 cells; experiment: PrestoBlue Cell Viability assay; type: cell-based; conditions: D283, read-out: PB: IC50 of the PrestoBlue Viability assay
Procedure: Cell viability was assessed using the Presto Blue™ Cell Viability reagent (Thermo Fisher Scientific, Carlsbad, CA, USA) following the manufacturer’s instructions. Cells were plated in 96-well plates at the same densities described above for the proliferation assay. The fluorescence was measured after 24, 48, 72, and 96 h at concentrations ranging from 0.001 to 10 µM of the inhibitor. All assays were performed in triplicate.

| Structure (SMILES) | IC50 [1] [nM] | IC50 [2] [nM] | IC50 [3] [nM] | IC50 [4] [nM] | IC50 [5] [nM] | inhibition at 10 µM [6] [%] | inhibition at 10 µM [7] [%] | inhibition at 10 µM [8] [%] | IC50 [9] [nM] |
| --- | --- | --- | --- | --- | --- | --- | --- | --- | --- |
| COc1ccc2c(c1)[C@]1(C[C@H]1c1ccc3c(/C=C/c4ccc(CN5C[C@@H](C)O[C@@H](C)C5)cc4)n[nH]c3c1)C(=O)N2 [CFI-400945, (1r,2s).2-(3-((e).4-(((cis).2,6-dimethylmorpholino)methyl)styryl). 1h.Indazol-6-yl)-5′-methoxyspiro[cyclopropane-1,3′-indolin]-2′-one] | 7250 | 3300 | 47.1 | 71 | 67.4 |  |  |  |  |
| O=C(c1ccc(/C=C/c2n[nH]c3ccccc23)cc1)N1CCNCC1 [KW-2449] |  |  |  |  |  | 66 | 97 | 88 |  |
| COc1c(Nc2cc(C)[nH]n2)nc(Sc2ccc(S(=O)(=O)Cc3cccc([N+](=O)[O-])c3F)cc2F)nc1N1CCOCC1 [centrinone] | 3880 | 1560 | 1250 | 6950 | 1840 |  |  |  | 6650 |
